## AlphaSeq binding of Ab-14 light chain variants to a spike HR2 peptide

The target is the same throughout: PDVDLGDISGINAS, from the HR2 region of SARS-CoV-2 spike.

Ab-14 is the parent antibody, in scFv form: VH, then three GGGGS repeats, then VL. The heavy chain is unchanged in all variants.
VH: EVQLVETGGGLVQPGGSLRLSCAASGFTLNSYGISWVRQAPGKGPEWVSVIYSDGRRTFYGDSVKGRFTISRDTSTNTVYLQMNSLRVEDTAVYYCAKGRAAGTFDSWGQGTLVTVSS
VL: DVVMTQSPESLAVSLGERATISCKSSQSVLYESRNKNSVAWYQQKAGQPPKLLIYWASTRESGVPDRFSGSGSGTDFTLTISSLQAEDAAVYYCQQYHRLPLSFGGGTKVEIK

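Phage display of a naive human antibody library on the peptide gave the parent. The variants were designed computationally from a first round of random CDR variants and then made and measured. Several design methods are mixed in this list. AlphaSeq pools MATa yeast showing the antibodies with MATalpha yeast showing the peptide. The frequency of each diploid, read from paired DNA barcodes, reflects how well the two displayed proteins bind. Each replicate has its own calibration line, from reference interactions of the BCL2 family. Mating was done six times.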

Variants are written as CDR1, CDR2 and CDR3 of the light chain (limits as in the source). Parent: KSSQSVLYESRNKNSVA, WASTRES, QQYHRLPLS.
Variants here have more than six changes.
Each Kd is an estimate from the mating assay, the geometric mean of the replicates in which the pair was seen; lower is stronger.
"nd" means that the variant was in the library but no mating with the target was seen in any replicate; the authors take this as a sign of poor binding, and no number exists.
Order: sorted from the lowest average up, undetected variants last.
The parent sequence was in this pool as ten entries: three were never detected, three once, and four in most replicates, with averages from 2.2 nM to 240 nM.
A sequence measured in both rounds can read differently, since the two assays cover different ranges.
Empty control strains, which show no peptide, gave a signal in 4% of pairings with all light chain designs; the median was 430 nM and 95% of these signals were weaker than 38 nM. No background was subtracted. Also given: how often the same scFv was detected with the empty control strains.
The authors averaged sequences with at least three values out of six and counted those with two or fewer as poor binders.

* KLQQSQLYESRNTNSVA / QASQREQ / QQYHRLPLS -> 440 pM (6 of 6 replicates; controls 0 of 18)
* SLYDATMMESRNKNPIA / DVSTRPS / QQYHRLPLS -> 570 pM (6 of 6 replicates; controls 1 of 18)
* KVEPSVQGEQRNFNAVA / EASTREQ / QQYHRLPLS -> 880 pM (6 of 6 replicates; controls 0 of 18)
* TLTQVQGMESHNKNNVA / DLSTRGS / QQYHRLPLS -> 940 pM (6 of 6 replicates; controls 1 of 18)
* HLEQSSLYEQRNKNSVA / NASQRCS / QQYHRLPLS -> 940 pM (6 of 6 replicates; controls 0 of 18)
* KLSMITGHMHMSKNNVA / EMVTRVN / QQYNRLPLS -> 1.0 nM (6 of 6 replicates; controls 1 of 18)
* KLENSNRWNYRDTNAVA / QASTRAA / QQYQRLPFL -> 1.2 nM (6 of 6 replicates; controls 2 of 18)
* KVSQLDNGESRNHNSVA / HASTRSS / QQYHRLPLS -> 1.4 nM (6 of 6 replicates; controls 0 of 18)
* KLYASTMLEMHDKNSIA / DLSTRGN / QQYHRLPLS -> 2.8 nM (6 of 6 replicates; controls 0 of 18)
* KLVESELYESRQSNAVA / NASYREE / QQYHRLPLS -> 2.8 nM (6 of 6 replicates; controls 2 of 18)
* MISQLMNMGTFAINSVA / QAEIRNA / QQYDRLPLI -> 3.1 nM (6 of 6 replicates; controls 0 of 18)
* LLKGMVEGQLYKQNAIA / NAEERDR / QQYNHLPLS -> 3.9 nM (6 of 6 replicates; controls 1 of 18)
* KVSWEDLLQSRNKGQVA / EASTRES / QQYHRLPLS -> 4.1 nM (6 of 6 replicates; controls 1 of 18)
* KLRQMTLTEGYFKNSVA / QASTREE / QSYHRLPLS -> 5.0 nM (6 of 6 replicates; controls 0 of 18)
* KISQMARVGMTHGNSIA / EEATRAK / QQYHRLPLS -> 6.6 nM (6 of 6 replicates; controls 0 of 18)
* KLYQVTGYEMLNKNSVA / QTSTRVN / QDYHRLPLS -> 6.9 nM (6 of 6 replicates; controls 1 of 18)
* TISSVMQTQSHSKSNVA / EVSMRLE / QQYVRLPLA -> 7.4 nM (6 of 6 replicates; controls 5 of 18)
* NMGGTKEMQSNEIGNIA / DMNERFA / QQYFQLPLS -> 7.5 nM (6 of 6 replicates; controls 3 of 18)
* IVSQLMLWGLHASNSIA / EAQTRLN / QQYDRLPLF -> 8.9 nM (6 of 6 replicates; controls 0 of 18)
* MISQVMNTLTRNGNNVA / DLAEREQ / QQYFRLPLS -> 11 nM (6 of 6 replicates; controls 1 of 18)
* MLLQSTMYGERARNSVA / HASTRED / QQYHRLPLI -> 11 nM (6 of 6 replicates; controls 0 of 18)
* KVGDSMAFLSRNRNSVA / DNSTRGS / QQYHRLPLS -> 12 nM (6 of 6 replicates; controls 1 of 18)
* KISYMGEYFSTNHSAIA / QASTREQ / QQYHRLPIS -> 15 nM (6 of 6 replicates; controls 1 of 18)
* KFFGGIPEQERDDYSIA / MGTLRET / QQYQRLPLS -> 15 nM (5 of 6 replicates; controls 0 of 18)
* KLSKMVMYGSRNKNSVA / SASTREE / QQYHRLPLS -> 16 nM (6 of 6 replicates; controls 2 of 18)
* MMSQVTGLGMRHRNNVA / QTSTREP / QQYDRLPLV -> 19 nM (6 of 6 replicates; controls 2 of 18)
* KLYEMVASTMMNIRNVA / DNSTREQ / QQYNRLPLS -> 32 nM (6 of 6 replicates; controls 1 of 18)
* IVSQLMLWGMHAKNSIA / EAQTRLN / QQYDRLPLF -> 39 nM (1 of 6 replicates; controls 0 of 18)
* MISDTGLHDSRMENSVA / NNSTRES / QQYHRLPLS -> 44 nM (1 of 6 replicates; controls 0 of 18)
* KLQQSMLYESRWHNSVA / HASVRCD / QQYHRLPLS -> 50 nM (6 of 6 replicates; controls 2 of 18)
* KLDLLNGEMDIGGDSIA / EVSTAGM / QQYWRLPLS -> 58 nM (6 of 6 replicates; controls 4 of 18)
* TISQSTYWETFNKNNVA / QTSTREE / QDYDRLPLS -> 160 nM (3 of 6 replicates; controls 0 of 18)
* RIDAYPPMQGNNIDSIA / ENAITLD / QQYAQLPLS -> 290 nM (1 of 6 replicates; controls 0 of 18)
* MLSEVLHMLGVKKNSIA / DLVLRAN / QQYHRLPLA -> nd (0 of 6 replicates; controls 0 of 18)

Extract of 4 entries:

CDR-L1	CDR-L2	CDR-L3	Kd	detected	signal with controls
KLSMITGHMHMSKNNVA	EMVTRVN	QQYNRLPLS	1.0 nM	6 of 6	1 of 18
KLRQMTLTEGYFKNSVA	QASTREE	QSYHRLPLS	5.0 nM	6 of 6	0 of 18
KISYMGEYFSTNHSAIA	QASTREQ	QQYHRLPIS	15 nM	6 of 6	1 of 18
MLLQSTMYGERARNSVA	HASTRED	QQYHRLPLI	11 nM	6 of 6	0 of 18

The measurements come from Li et al. 2023 (doi:10.1038/s41467-023-39022-2) through the FLAb antibody collection.